Measured values: ChEMBL document CHEMBL1130223 (J Med Chem, 1997)

Sequences of proteins named here, by UniProt entry; tags and fusion partners are left off. A change or cut given only in a name is not applied to a line headed by its entry.
UniProt P35563: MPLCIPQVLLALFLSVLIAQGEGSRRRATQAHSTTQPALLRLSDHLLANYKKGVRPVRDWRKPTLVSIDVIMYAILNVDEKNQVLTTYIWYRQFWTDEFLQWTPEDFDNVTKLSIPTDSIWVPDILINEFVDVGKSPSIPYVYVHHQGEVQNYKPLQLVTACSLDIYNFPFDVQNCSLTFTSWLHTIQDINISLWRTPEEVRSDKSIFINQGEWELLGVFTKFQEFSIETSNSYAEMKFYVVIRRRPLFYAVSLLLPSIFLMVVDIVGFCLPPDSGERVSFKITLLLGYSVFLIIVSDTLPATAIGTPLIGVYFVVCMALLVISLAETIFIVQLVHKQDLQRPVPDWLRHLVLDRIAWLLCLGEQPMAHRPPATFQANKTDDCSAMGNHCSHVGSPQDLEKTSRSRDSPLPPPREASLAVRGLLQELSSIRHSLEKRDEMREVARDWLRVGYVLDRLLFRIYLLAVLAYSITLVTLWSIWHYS
UniProt Q9JJ16: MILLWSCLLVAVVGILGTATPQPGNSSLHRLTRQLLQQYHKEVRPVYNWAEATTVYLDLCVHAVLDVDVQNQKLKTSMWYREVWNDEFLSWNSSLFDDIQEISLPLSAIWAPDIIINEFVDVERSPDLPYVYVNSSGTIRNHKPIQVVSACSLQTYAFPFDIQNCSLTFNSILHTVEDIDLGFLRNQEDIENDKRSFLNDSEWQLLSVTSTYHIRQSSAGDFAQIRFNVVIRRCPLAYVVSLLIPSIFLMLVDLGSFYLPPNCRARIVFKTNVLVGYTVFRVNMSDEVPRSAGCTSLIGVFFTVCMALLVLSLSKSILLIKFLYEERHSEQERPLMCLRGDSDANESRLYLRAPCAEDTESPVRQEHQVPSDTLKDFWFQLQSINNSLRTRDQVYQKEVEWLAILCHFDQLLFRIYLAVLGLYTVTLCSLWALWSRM

Columns and labels:
[1] = molecular target: T1, Serotonin 3 (5-HT3) receptor (Rattus norvegicus) (UniProt P35563+Q9JJ16); experiment: The stimulation of cardiac 5-HT3 receptors evaluated by using von Bezold-Jarisch reflex test in urethane-anesthetized rats; pure antagonist; type: functional; details: filed as antagonist
[2] = molecular target: T1, Serotonin 3 (5-HT3) receptor (Rattus norvegicus); experiment: Dose required to stimulate cardiac 5-HT3 receptors evaluated by using von Bezold-Jarisch reflex test in urethane-anesthetized rats; type: functional
[3] = molecular target: T1, Serotonin 3 (5-HT3) receptor (Rattus norvegicus); details: filed as antagonist
[4] = molecular target: T1, Serotonin 3 (5-HT3) receptor (Rattus norvegicus); experiment: Dose required to stimulate cardiac 5-HT3 receptors evaluated by using von Bezold-Jarisch reflex test in urethane-anesthetized rats after intravenous administration; type: functional, organism-based

`CN1CCN(c2nc3ccccc3n3cccc23)CC1` was tested, and the Behavior [1] was “Antagonist” and the ID50 [2] was 0.3 mg/kg.

In the case of `CN1CCN(c2nc3cc(C(F)(F)F)ccc3n3cccc23)CC1`, the Behavior [3] is reported as “Antagonist” and the ID50 [4] is reported as 0.3 mg/kg.
